Results from PubChem BioAssay AID1832 (Broad Institute, 2009).
The entries are a selection whose mix differs from that of the whole data set. Some results for these compounds are left out of this collection, so the calls shown say nothing about other tests. Activity calls are given as the source filed them.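 Rule for the calls: active = inhibition past about -25% in most replicates, and total fluorescence under double the plate's negative control median (limit read from the data); inconclusive = replicates evenly split on the limit, or fluorescence at least double controls; inactive = too little inhibition in most replicates.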

Amino acid sequences for entries named in this document (tags omitted).
UniProt Q9XUB2, whole entry: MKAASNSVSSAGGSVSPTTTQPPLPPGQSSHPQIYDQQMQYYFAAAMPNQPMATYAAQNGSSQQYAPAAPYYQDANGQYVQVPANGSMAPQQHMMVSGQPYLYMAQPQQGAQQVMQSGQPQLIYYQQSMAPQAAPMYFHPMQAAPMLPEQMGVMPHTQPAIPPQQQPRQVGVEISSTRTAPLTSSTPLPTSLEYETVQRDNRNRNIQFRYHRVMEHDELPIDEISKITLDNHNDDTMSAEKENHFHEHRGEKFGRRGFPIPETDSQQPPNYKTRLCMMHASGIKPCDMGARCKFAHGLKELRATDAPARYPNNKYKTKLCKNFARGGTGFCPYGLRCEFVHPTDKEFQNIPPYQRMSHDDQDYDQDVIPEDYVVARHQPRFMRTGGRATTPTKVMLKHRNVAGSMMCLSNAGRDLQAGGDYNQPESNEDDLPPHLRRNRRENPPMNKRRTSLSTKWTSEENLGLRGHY

target: Zinc finger protein mex-5 (Caenorhabditis elegans) (UniProt Q9XUB2); assay: MEX-5 zinc finger RNA-binding disruptors – biochemical, C. elegans, fluorescence polarization, MLPCN library, primary screen (AID 1832); conditions: MEX-5/FITC-TCR2 RNA binding, at 10 µM, hits give low values;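 note: 0% = DMSO and -100% = 5 µM competing unlabeled TCR2 RNA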

SMILES	activity score (negative = inhibition of binding)
Cc1ccccc1C(=O)NCC1(N2CCCCC2)CCCCC1	inactive: 1.02%
CN(C)c1ccc(C(=O)NCC2(N(C)C)CCCCC2)cc1	inactive: 3.48%
CN(C)C1CCCC1OC(=O)C(O)(c1ccccc1)c1ccccc1 (centres undefined)	inactive: -3.13%
C=CCN1CCN(CCOC(=O)C(O)(c2ccccc2)c2ccccc2)CC1	inactive: 0.868%
O=C(NCC1(N2CCCCC2)CCCCC1)c1cc(F)c(F)cc1Cl	inactive: -0.297%
COc1ccc(C(=O)NCC2(N(C)C)CCCCC2)cc1	inactive: -1.29%
CCN1CCCC(OC(=O)C2(O)c3ccccc3C=Cc3ccccc32)C1 (centres undefined)	inactive: 1.06%
Cc1cc(C(=O)NCC2(N3CCCCC3)CCCCC2)ccc1[N+](=O)[O-]	inactive: 0.755%
O=C(NCC1(N2CCCCC2)CCCCC1)c1cccc(Br)c1	inactive: -1.92%
O=C(NCC1(N2CCCCC2)CCCCC1)c1cc([N+](=O)[O-])ccc1Cl	inactive: -8.94%
CN1[C@@H]2CC[C@H]1CC(OC(=O)C(O)(c1ccccc1)c1ccccc1)C2 (some centres undefined)	inactive: 0.849%
CCN(CC)CC(C)C(C)OC(=O)C(O)(c1ccccc1)c1ccccc1 (centres undefined)	inactive: 0.233%
COc1cc(SC)ccc1C(=O)NCC1(N(C)C)CCCCC1	inactive: -2.27%
CC(C)N1C(=O)CC2(CCN(CCOC(=O)C(O)(c3ccccc3)c3ccccc3)CC2)C1=O	inactive: 3.34%
Cc1ccc(C(=O)NCC2(N3CCCCC3)CCCCC2)cc1	inactive: 0.756%
O=C(OC1CN2CCC1CC2)C(CO)(c1ccccc1)c1ccccc1 (centres undefined)	inactive: 2.8%
COc1ccc(Br)c(C(=O)NCC2(N3CCCCC3)CCCCC2)c1	inactive: 3.46%
CC(C)Oc1ccc(C(=O)NCC2(N(C)C)CCCCC2)cc1	inactive: -0.454%
CN(C)c1cccc(C(=O)NCC2(N(C)C)CCCCC2)c1	inactive: -1.32%
CN(C)C1(CNC(=O)c2ccc(Br)cc2)CCCCC1	inactive: 2.04%
COc1cc(C(=O)NCC2(N(C)C)CCCCC2)c([N+](=O)[O-])cc1OC	inactive: -1.16%
COc1cccc(C(=O)NCC2(N3CCCCC3)CCCCC2)c1	inactive: 2.69%
COc1ccc(Cl)cc1C(=O)NCC1(N(C)C)CCCCC1	inactive: 2.04%
O=C(NCC1(N2CCCCC2)CCCCC1)c1cccc(Cl)c1	inactive: -0.533%
